Literature values, collected in US11071781B2, “Combination of local and systemic immunomodulative therapies for enhanced treatment of cancer” (Provectus Pharmatech, Inc., priority 2011, dated 2021).

Test system: melanoma
Conditions: intralesional therapy, patients

Substance: interleukin-2: interleukin 2, non-specific cytokine
- toxicity and side effects: flu like symptoms
